According to US5714615A (priority 1994, dated 1998):
Only a part of the results on these compounds is given; other tests are left out.

Amino acid sequences for entries named in this document (tags omitted). Residues count along the entry.
UniProt O42275, 24-633 limits assumed: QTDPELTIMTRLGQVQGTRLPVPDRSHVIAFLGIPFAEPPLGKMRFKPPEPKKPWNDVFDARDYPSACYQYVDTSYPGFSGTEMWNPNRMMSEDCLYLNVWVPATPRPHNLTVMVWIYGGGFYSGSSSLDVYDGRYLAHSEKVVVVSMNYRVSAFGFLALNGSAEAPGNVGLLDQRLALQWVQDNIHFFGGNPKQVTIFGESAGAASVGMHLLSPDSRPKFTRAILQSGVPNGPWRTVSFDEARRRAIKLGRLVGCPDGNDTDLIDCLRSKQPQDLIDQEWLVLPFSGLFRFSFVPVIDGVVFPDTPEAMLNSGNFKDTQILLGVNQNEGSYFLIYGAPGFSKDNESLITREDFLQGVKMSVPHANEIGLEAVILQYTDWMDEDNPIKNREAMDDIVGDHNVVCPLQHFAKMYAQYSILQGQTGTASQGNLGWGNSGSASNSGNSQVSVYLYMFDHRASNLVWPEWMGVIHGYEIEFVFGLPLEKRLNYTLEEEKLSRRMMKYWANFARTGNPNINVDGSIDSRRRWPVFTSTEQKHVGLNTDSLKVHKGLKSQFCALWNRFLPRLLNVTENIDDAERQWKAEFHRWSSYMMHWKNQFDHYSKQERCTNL

Target: electric eel AChE (Electrophorus electricus, UniProt O42275)
Test: Reversible (competitive) inhibition of electric eel AChE
Format: biochemical
Settings: 0.32 mM inhibitor

CN(C)C(=O)Oc1ccc[n+](C)c1C=NNC(=O)Nc1c(Cl)cccc1Cl
% Inhibition: 49%
